Experimental data reported in ChEMBL document CHEMBL3351781, “Assessment of antidotal efficacy of cholinesterase reactivators against paraoxon: In vitro reactivation kinetics and physicochemical properties” (2014).

Key:
[1] = Dissociation constant, pKa of the compound by Albert and Sergeant/UV-visible spectrophotometry method
[2] = Dissociation constant, pKa of the compound by non-linear regression/UV-VIS absorption spectra analysis

Compound: CC(=O)/C(C)=N/O
- pKa [1]: 9.5

Compound: O/N=C\c1cc[n+](Cc2ccccc2C[n+]2ccc(/C=N\O)cc2)cc1.[Br-].[Br-]
- pKa [1]: 8.29
- pKa [2]: 7.4

Compound: O/N=C/c1cc[n+](Cc2ccc(C[n+]3ccc(/C=N/O)cc3)cc2)cc1.[Br-].[Br-]
- pKa [1]: 8.3
- pKa [2]: 7.58

Compound: NC(=O)c1cc[n+](CCCC[n+]2ccc(/C=N/O)cc2)cc1.[Br-].[Br-]
- pKa [1]: 8.55
- pKa [2]: 8.28

Compound: C[n+]1ccc(/C=N/O)cc1.[Br-]
- pKa [1]: 8.36

Compound: C[n+]1cccc(/C=N/O)c1.[Br-]
- pKa [1]: 9.53

Compound: NC(=O)c1cc[n+](Cc2cccc(C[n+]3ccc(/C=N/O)cc3)c2)cc1.[Br-].[Br-]
- pKa [1]: 8.02
- pKa [2]: 8.11

Compound: O/N=C/c1cc[n+](CCC[n+]2ccc(/C=N/O)cc2)cc1.[Br-].[Br-]
- pKa [1]: 8.19
- pKa [2]: 7.06

Compound: NC(=O)c1cc[n+](Cc2ccc(C[n+]3ccc(/C=N/O)cc3)cc2)cc1.[Br-].[Br-]
- pKa [1]: 8.25
- pKa [2]: 8.1

Compound: NC(=O)c1cc[n+](Cc2ccccc2C[n+]2ccc(/C=N/O)cc2)cc1.[Br-].[Br-]
- pKa [1]: 8.13
- pKa [2]: 7.97
